Measured values taken from patent US20090263341A1, “SOFT ANTICHOLINERGIC ESTERS” (priority 2005, published 2009).

Chains of the proteins cited; added tags and fusions are not shown. Lines headed by an entry give the natural chain unless they say otherwise; changes in a name come on top.
UniProt P20309, whole entry, looked up: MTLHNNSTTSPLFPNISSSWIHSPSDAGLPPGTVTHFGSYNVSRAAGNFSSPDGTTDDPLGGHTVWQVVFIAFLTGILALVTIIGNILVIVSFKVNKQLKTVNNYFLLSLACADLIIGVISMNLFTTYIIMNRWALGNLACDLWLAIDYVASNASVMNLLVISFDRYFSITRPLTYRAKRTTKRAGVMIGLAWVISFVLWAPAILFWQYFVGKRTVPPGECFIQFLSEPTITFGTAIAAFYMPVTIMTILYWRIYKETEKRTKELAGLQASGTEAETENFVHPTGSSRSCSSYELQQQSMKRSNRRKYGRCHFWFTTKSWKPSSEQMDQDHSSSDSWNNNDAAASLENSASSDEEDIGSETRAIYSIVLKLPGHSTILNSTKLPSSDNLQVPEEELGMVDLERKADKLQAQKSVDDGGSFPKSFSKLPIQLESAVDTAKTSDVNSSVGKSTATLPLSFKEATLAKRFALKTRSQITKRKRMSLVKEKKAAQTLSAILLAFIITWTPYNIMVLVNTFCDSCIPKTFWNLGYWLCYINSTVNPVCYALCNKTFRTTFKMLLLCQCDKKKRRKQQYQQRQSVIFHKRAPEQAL
UniProt P11229: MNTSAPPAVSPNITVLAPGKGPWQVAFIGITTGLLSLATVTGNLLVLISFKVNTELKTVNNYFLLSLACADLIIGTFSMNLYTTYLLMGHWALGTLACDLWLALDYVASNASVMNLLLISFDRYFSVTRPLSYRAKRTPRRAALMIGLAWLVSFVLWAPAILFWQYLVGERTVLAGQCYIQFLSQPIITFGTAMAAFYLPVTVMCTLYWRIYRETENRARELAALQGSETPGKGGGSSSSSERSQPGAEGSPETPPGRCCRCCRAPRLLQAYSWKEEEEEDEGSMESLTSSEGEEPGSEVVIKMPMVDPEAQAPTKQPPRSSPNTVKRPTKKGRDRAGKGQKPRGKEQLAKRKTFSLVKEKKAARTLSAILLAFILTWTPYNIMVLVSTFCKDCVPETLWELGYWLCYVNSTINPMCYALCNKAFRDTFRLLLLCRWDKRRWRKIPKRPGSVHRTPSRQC
UniProt P08173, whole entry, looked up: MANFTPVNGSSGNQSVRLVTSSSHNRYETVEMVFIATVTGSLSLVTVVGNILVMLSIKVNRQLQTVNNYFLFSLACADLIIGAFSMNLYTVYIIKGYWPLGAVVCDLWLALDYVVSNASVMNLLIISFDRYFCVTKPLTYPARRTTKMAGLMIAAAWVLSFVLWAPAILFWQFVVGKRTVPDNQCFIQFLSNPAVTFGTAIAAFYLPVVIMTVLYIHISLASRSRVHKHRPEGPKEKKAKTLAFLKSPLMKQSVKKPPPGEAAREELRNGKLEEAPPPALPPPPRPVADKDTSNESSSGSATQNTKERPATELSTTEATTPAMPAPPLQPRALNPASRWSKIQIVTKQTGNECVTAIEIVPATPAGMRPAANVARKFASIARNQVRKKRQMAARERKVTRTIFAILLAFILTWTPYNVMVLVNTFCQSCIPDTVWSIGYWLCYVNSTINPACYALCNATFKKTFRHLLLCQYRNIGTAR
UniProt P08172, whole entry, looked up: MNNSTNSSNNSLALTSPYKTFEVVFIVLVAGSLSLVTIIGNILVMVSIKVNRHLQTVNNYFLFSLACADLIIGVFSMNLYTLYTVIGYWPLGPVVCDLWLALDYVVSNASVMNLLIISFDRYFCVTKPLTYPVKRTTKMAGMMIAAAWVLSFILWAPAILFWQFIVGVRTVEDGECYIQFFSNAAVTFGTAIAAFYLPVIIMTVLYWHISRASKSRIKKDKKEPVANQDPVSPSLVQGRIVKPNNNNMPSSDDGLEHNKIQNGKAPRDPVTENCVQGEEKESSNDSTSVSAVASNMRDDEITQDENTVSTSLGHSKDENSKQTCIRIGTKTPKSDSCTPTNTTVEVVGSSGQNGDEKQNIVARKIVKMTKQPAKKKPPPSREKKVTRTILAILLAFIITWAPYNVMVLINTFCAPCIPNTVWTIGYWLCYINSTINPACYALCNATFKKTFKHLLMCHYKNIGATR
UniProt P08482: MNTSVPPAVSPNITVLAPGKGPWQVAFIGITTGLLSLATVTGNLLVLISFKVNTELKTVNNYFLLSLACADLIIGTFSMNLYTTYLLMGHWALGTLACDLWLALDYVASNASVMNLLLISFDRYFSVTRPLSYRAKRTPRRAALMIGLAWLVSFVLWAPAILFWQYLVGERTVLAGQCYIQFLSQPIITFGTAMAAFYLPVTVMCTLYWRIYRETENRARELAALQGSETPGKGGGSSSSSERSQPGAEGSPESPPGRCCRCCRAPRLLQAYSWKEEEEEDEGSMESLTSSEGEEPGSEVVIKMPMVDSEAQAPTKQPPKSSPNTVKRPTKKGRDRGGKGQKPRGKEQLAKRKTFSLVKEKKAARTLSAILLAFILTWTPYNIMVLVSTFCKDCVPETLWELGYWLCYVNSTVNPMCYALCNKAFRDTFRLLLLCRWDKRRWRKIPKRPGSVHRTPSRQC

Tests used:
[1] = biological target: cloned human muscarinic receptor subtype M3 (Homo sapiens, UniProt P20309); experiment: Receptor binding, [3H]NMS, cloned human muscarinic receptor M3; details: for receptor binding affinity pKi, M3: mean ± SD of 3 experiments; for Hill slope, M3: numbers in parentheses
[2] = system: cloned human muscarinic receptor subtypes M1-M4; experiment: Receptor binding at cloned human muscarinic receptors, values stated across subtypes (ranges, M3/M2 selectivity)
[3] = biological target: cloned human muscarinic receptor subtype M1 (Homo sapiens, UniProt P11229); experiment: Receptor binding, [3H]NMS, cloned human muscarinic receptor M1; details: for receptor binding affinity pKi, M1: mean ± SD of 3 experiments; for Hill slope, M1: numbers in parentheses
rabbit eyes (pupil size) = experiment: In vivo mydriatic studies of zwitterionic isomers in rabbit eyes; parameters: AUC^eff0-168 h: unit not given beside the values; details: for Rmax (%): 0.1 mL topical, maximum % change in pupil size
[4] = biological target: cloned human muscarinic receptor subtype M4 (Homo sapiens, UniProt P08173); experiment: Receptor binding, [3H]NMS, cloned human muscarinic receptor M4; details: for receptor binding affinity pKi, M4: mean ± SD of 3 experiments; for Hill slope, M4: numbers in parentheses
[5] = biological target: cloned human muscarinic receptor subtype M2 (Homo sapiens, UniProt P08172); experiment: Receptor binding, [3H]NMS, cloned human muscarinic receptor M2; details: for receptor binding affinity pKi, M2: mean ± SD of 3 experiments; for Hill slope, M2: numbers in parentheses
[6] = system: guinea pig ileum (M3 muscarinic receptors); experiment: Guinea pig ileum contraction assay, pA2 against carbachol; details: carbachol as agonist, 4-6 strips, mean ± SD
[7] = biological target: muscarinic receptors (mainly M1) of rat brain cortex membranes (Rattus norvegicus, UniProt P08482); experiment: Receptor binding, [3H]QNB, rat cortical membrane preparation; details: Table 8; for Ki: read-out: Ki (nM), Average ± SD, [3H]QNB, rat cortical membranes

Compound	receptor binding affinity pKi, M3 [1]	Hill slope, M3 [1]	Selectivity M3/M2 (affinity ratio) [2]	receptor binding affinity pKi, M1 [3]	Hill slope, M1 [3]	AUC^eff0-168 h (rabbit eyes (pupil size); conc. 0.1%)	Rmax (%) (rabbit eyes (pupil size); conc. 0.1%)	receptor binding affinity pKi, M4 [4]	Hill slope, M4 [4]	receptor binding affinity pKi, M2 [5]	Hill slope, M2 [5]	also measured
(2S,1′S,3′R) 3-(2-cyclopentyl-2-phenyl-2-hydroxyacetoxy)-1-(carboxymethyl)-1-methylpyrrolidinium inner salt	6.22 ± 0.05	(1.04 ± 0.08)	0.7 ± 0.0 times	6.67 ± 0.06	(1.08 ± 0.03)	13 ± 15	3.87 ± 4.49%	6.47 ± 0.01	(1.30 ± 0.28)	6.35 ± 0.01	(1.01 ± 0.01)	AUC^eff0-168 h (rabbit eyes (pupil size); conc. 0.4%): 37 ± 3; Rmax (%) (rabbit eyes (pupil size); conc. 0.4%): 14.88 ± 1.19%; pA2 [6]: 5.69 ± 0.13
C[N@+]1(CC(=O)[O-])CC[C@H](OC(=O)[C@](O)(c2ccccc2)C2CCCC2)C1	8.46 ± 0.12	(0.80 ± 0.21)	5.5 ± 1.1 times	8.32 ± 0.04	(1.01 ± 0.01)	274 ± 134	47.32 ± 19.64%	8.56 ± 0.07	(0.86 ± 0.06)	7.64 ± 0.01	(1.00 ± 0.04)	–
C[N+]1(CC(=O)[O-])CCC(OC(=O)C(O)(c2ccccc2)C2CCCC2)C1 (stereo not drawn)	5.84 ± 0.07	(1.01 ± 0.07)	2.4 ± 0.7 times	6.19 ± 0.06	(1.11 ± 0.06)	–	–	6.44 ± 0.06	(0.84 ± 0.06)	5.48 ± 0.13	(1.02 ± 0.20)	pKi, range over subtypes M1-M4 [2]: 5.5-6.4; AUC^eff0-168 h (rabbit eyes (pupil size); conc. 0.01%): 0.7 ± 0.9; Rmax (%) (rabbit eyes (pupil size); conc. 0.01%): 1.85 ± 2.14%; AUC^eff0-168 h (rabbit eyes (pupil size); conc. 1%): 119 ± 34; Rmax (%) (rabbit eyes (pupil size); conc. 1%): 45.37 ± 8.19%
CCCCCCOC(=O)C[N+]1(C)CCC(OC(=O)C(O)(c2ccccc2)C2CCCC2)C1 (stereo not drawn)	–	–	–	–	–	–	–	–	–	–	–	Hill slope [7]: −1.15 ± 0.05; Ki [7]: 58 nM
C[N@+]1(CC(=O)[O-])CC[C@@H](OC(=O)[C@](O)(c2ccccc2)C2CCCC2)C1	8.15 ± 0.02	(0.84 ± 0.17)	3.3 ± 0.0 times	8.13 ± 0.06	(1.25 ± 0.01)	308 ± 106	51.79 ± 16.62%	8.33 ± 0.04	(1.00 ± 0.06)	7.63 ± 0.02	(0.82 ± 0.15)	duration of mydriatic activity (rabbit eyes (pupil size); 0.1% concentrations (FIG. 5)): 10 h
C[N@@+]1(CC(=O)[O-])CC[C@H](OC(=O)[C@@](O)(c2ccccc2)C2CCCC2)C1	<4.5	–	–	<4.5	–	0 ± 0	0.00 ± 0.00%	<4.5	–	<4.5	–	AUC^eff0-168 h (rabbit eyes (pupil size); conc. 0.4%): 0 ± 0; Rmax (%) (rabbit eyes (pupil size); conc. 0.4%): 0.00 ± 0.00%
(2R,1′R,3′S) 3-(2-cyclopentyl-2-phenyl-2-hydroxyacetoxy)-1-(carboxymethyl)-1-methylpyrrolidinium inner salt	8.04 ± 0.01	(0.96 ± 0.03)	5.2 ± 0.7 times	7.98 ± 0.01	(1.02 ± 0.03)	216 ± 29	43.90 ± 7.63%	8.15 ± 0.06	(1.01 ± 0.06)	7.39 ± 0.09	(0.80 ± 0.22)	pA2 [6]: 7.33 ± 0.28
CCCCCCOC(=O)C[N@+]1(C)CC[C@H](OC(=O)[C@](O)(c2ccccc2)C2CCCC2)C1	–	–	–	–	–	–	–	–	–	–	–	Hill slope [7]: −1.22 ± 0.08; Ki [7]: 67 nM
